{
  "sequences": {"note": "Protein sequences, listed by entry. Tags and fused reporters are not part of them.", "UniProt P08908, whole entry": "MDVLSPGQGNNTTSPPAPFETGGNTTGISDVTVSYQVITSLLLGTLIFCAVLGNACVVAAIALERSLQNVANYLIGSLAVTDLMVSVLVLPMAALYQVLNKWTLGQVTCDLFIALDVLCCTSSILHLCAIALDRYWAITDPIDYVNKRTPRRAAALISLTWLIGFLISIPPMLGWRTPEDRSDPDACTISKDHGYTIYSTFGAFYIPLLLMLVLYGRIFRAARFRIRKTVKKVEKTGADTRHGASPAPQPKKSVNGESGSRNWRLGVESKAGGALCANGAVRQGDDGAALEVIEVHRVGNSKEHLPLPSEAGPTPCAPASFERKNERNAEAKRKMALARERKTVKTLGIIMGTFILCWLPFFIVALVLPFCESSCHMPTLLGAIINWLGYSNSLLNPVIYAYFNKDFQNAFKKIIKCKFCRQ"},
  "source": "patent US20240108601A1",
  "about": "“TREATMENT OF MENTAL DISORDERS” (GH Research Ireland Limited, priority 2022, published 2024)",
  "target": "T1, 5-HT1A receptors (Homo sapiens, UniProt P08908)",
  "T1 construct": "hippocampal membranes (400 μl; equivalent 1.25 mg wet weight tissue/tube) were incubated with 50 μl of 0.6 nM; tissue Edinburgh Sudden Death Brain Bank; host or cells: post-mortem human hippocampus membranes",
  "assay": "Radioligand ([3H]8-OH-DPAT) binding to 5-HT1A receptors in post-mortem human hippocampus membranes",
  "data": [
    {"molecule": "COc1ccc2[nH]cc(CCN(C)C)c2c1", "note": "[5-MeO-DMT]", "values": [
      {"measurement": "Ki", "result": 1.8, "unit": "nM"}
    ]}
  ]
}
